These results are taken from BindingDB's records for doi:10.1111/j.1471-4159.1985.tb08803.x (Lundbeck Ais, 1985).

Amino acid sequences for entries named in this document (tags omitted).
UniProt P23977, whole entry: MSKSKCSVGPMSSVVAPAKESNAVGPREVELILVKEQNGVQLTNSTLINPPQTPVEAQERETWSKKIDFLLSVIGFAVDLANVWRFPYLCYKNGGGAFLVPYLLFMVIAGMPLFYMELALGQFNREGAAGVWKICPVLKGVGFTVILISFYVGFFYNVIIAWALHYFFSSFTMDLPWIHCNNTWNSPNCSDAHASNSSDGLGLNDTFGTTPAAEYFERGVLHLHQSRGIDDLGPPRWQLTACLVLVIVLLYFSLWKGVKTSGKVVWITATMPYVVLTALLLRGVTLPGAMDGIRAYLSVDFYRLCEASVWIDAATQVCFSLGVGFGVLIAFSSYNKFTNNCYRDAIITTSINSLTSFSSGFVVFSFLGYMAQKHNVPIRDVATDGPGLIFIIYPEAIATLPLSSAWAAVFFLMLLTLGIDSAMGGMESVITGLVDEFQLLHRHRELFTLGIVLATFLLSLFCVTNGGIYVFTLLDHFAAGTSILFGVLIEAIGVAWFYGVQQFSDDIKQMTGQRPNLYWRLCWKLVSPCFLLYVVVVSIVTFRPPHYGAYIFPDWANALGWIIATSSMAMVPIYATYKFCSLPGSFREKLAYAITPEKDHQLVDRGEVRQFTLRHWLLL
UniProt P14842, whole entry: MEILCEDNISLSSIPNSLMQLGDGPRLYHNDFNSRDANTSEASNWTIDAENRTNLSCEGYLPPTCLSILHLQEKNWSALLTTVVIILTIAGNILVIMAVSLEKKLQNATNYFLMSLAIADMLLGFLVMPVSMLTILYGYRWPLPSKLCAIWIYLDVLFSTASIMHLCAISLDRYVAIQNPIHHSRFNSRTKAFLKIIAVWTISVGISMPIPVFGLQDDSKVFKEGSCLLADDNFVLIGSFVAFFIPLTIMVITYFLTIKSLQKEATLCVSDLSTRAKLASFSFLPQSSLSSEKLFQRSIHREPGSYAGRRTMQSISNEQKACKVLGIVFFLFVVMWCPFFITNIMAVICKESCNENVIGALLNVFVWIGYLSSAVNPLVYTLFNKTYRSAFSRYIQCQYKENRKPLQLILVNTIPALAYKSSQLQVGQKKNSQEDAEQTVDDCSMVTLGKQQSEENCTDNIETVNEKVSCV
UniProt P31652, whole entry: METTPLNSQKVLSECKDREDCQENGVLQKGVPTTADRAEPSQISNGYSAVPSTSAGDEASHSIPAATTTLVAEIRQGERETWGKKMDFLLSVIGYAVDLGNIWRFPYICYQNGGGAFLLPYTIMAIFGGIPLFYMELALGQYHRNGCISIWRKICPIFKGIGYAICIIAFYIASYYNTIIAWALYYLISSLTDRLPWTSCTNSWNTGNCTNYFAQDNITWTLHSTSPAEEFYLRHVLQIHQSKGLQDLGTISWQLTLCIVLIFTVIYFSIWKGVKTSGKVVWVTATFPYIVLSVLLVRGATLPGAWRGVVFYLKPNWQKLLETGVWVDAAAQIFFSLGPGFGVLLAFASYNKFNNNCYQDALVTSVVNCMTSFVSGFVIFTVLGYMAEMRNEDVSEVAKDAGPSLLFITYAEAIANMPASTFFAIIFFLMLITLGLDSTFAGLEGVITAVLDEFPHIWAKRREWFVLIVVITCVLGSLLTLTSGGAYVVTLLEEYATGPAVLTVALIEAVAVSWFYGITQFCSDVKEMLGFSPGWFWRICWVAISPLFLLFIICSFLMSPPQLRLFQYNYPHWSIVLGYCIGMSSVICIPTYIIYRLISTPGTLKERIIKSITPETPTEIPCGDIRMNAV

Assay [1] deals with Sodium-dependent dopamine transporter (Rattus norvegicus, UniProt P23977).
Assay [2] concerns the target 5-hydroxytryptamine receptor 2A (Rattus norvegicus, UniProt P14842).
Assay [3] deals with Sodium-dependent serotonin transporter (Rattus norvegicus, UniProt P31652).

pKi: −log10 of the molar value. Where a name gives a salt, the structure may show the parent alone.

In turn, `CN[C@H]1C[C@H](c2ccc(Cl)c(Cl)c2)c2ccccc21` [CAS_96850-13-4] showed a pKi in assay [1] of 9.00. In turn, `CN(C)CCCC1(c2ccc(F)cc2)OCc2cc(C#N)ccc21` (centres undefined) [CITALOPRAM HYDROBROMIDE] showed a pKi in assay [2] of 5.04. In assay [3], `COc1ccc2c(c1)CN(C)CC2c1ccc(Cl)c(Cl)c1` (centres undefined) had a pKi of 8.43.

`CN1Cc2c(N)cccc2[C@H](c2ccccc2)C1` [(+/-)-2-Methyl-4-phenyl-1,2,3,4-tetrahydro-isoquinolin-8-ylamine] gave a pKi in assay [3] of 6.08.

A word on the pKi: it is the negative decadic logarithm of the Ki, by convention in mol/L.
